Consider 26 compounds from PubChem BioAssay (Tox21).

The list shows a part of the results, in another mix than the full data. Results filed as inconclusive are left out. Calls of active or inactive are those of the source. Calls follow the shape of the dose curve; as a rule, active = well fitted cell-killing curve with a large enough effect in the repeat runs; inconclusive = weak or mixed curves, or effect the other way; inactive = flat fitted curve, though single readings scatter.
% is scaled to controls: 0 for no effect and ±100 for the full control effect; potency is read from the fitted curve at half-maximal effect.

A short description of this experiment: Nuclear factor erythroid 2-related factor 2/antioxidant responsive element (Nrf2/ARE) small molecule agonists: qHTS cell viability counter screen in human keratinocytes (AID 1919968). Also: nearly all actives have a fitted effect of over 55% in size. As to conditions: KeratinoSens HaCaT ARE cells viability, CellTiter-Fluor, 24 h; series mostly up to 92.4 µM; activity change, negative = cytotoxicity: at the top concentration. The text has this: U.S. Tox21 Program National Center for Advancing Translational Sciences [NCATS] Division of Preclinical Innovation [DPI] U.S. Environmental Protection Agency [EPA] National Institutes of Environmental Health Sciences [NIEHS] National Toxicology Program [NTP] U.S. Food and Drug Administration [FDA] Tox21 Assay Overview: Oxidative stress has been implicated in the pathogenesis of a variety of diseases ranging from cancer to neurodegeneration. The antioxidant response element (ARE) signaling pathway plays an important role in the amelioration of oxidative stress. The KeratinoSens (Givaudan, Switzerland) is an in vitro test method which quantifies luciferase induction as a measure of activation of Keap1-Nrf2-antioxidationt/electrophile response element (ARE) dependant pathway in HaCaT human keratinocytes stably transfected with a selectable plasmid. The KeratinoSens assay is a cell-based assay with a reporter cell line to detect potential skin sensitizers by their ability to induce the Nrf2/ARE-response. The activation of the report gene under culture conditions can be detected by ONE-Glo Luciferase Assay System (Promega, Madison, WI). This cell line has been used to screen the Tox21 10K compound library to identify agonists that induce oxidative stress. The cytotoxicity of the Tox21 compound library against the KS-ARE cell line was tested in parallel by measuring the cell viability using CellTiter- Fluor assay system (Promega, Madison, WI) in the same wells.
Tox21 Assay Protocol Summary: HaCaT derived cell line KeratinoSens were dispensed at 1,500 cells/5uL/well in 1536-well white wall/solid bottom plates using a Multidrop Combi (ThermoFisher Scientific, Waltham, MA) dispenser. After the assay plates were incubated at 37 C/5% CO2 for 5 h, 23 nL of compounds dissolved in DMSO, positive controls or DMSO only was transferred to the assay plate by a pintool workstation (Kalypsys, San Diego, CA). The plates were incubated at 37 C/5% CO2 for 23 h, followed by addition of 1uL/well of CellTiter-Fluor reagent into the assay plates using a Flying Reagent Dispenser (Aurora Discovery, San Diego, CA) for cell viability readout that measures cytotoxicity. After 1 h incubation at 37 C/5% CO2 the fluorescence intensity was measured using a ViewLux (PerkinElmer, Shelton, CT) plate reader.
(In general: Quantitative high-throughput screening tests each substance at several concentrations.)
Take `CN(C(=O)Cc1cccc2occc12)[C@H]1CC[C@@]2(CCCO2)C[C@@H]1N1CCCC1`: the “activity change, negative = cytotoxicity” value was inactive: -12.1%.
In the case of `CCOC(=O)Cl`, the “activity change, negative = cytotoxicity” value was inactive: 5.9%.
As for `CCCCOP(OCCCC)OCCCC`, the “activity change, negative = cytotoxicity” value was inactive: 2.45%.
`O=C(Cl)Oc1ccccc1`: the “activity change, negative = cytotoxicity” value is inactive: 3.45%.
Regarding `O=[N+]([O-])c1ccc(S(=O)(=O)O)c([N+](=O)[O-])c1`, the “activity change, negative = cytotoxicity” value was inactive: -1.58%.
`CN(C(=O)Cc1ccccc1)[C@H]1CC[C@@]2(CCCO2)C[C@@H]1N1CCCC1`: the “activity change, negative = cytotoxicity” value is inactive: 0.969% [at 42.5 µM].
Regarding `CC(C)OP(=S)(OC(C)C)SCCNS(=O)(=O)c1ccccc1`, the “activity change, negative = cytotoxicity” value was inactive: -0.544%.
With `CCCCC(CC)CO[P+](=O)OCC(CC)CCCC` (stereo unspecified), the “activity change, negative = cytotoxicity” value is inactive: -6.81%.
Regarding `O=C(Cl)OCCOC(=O)Cl`, the “activity change, negative = cytotoxicity” value is inactive: 0.614%.
On to `CN(C(=O)Cc1ccc(Cl)c(Cl)c1)[C@H]1CC[C@@]2(CCCO2)C[C@@H]1N1CCCC1`, for which the “activity change, negative = cytotoxicity” value was inactive: 1.01% [at 42.5 µM].
Regarding `O=[P+](Oc1ccccc1)Oc1ccccc1`, the “activity change, negative = cytotoxicity” value is inactive: 3.38%.
`CCNC(C)Cc1ccc2c(c1)OCO2` (stereo unspecified): the “activity change, negative = cytotoxicity” value is inactive: 1.4%.
As to `CN(N=O)C(=N)N[N+](=O)[O-]`, the “activity change, negative = cytotoxicity” value is inactive: -0.504%.
Same read-out and setting: to `COC(=O)Cl` belongs inactive: -2.8%.
As for `CCCCO[P+](=O)OCCCC`, the Potency result was “inactive”.
With `O=P(Cl)(Cl)c1ccccc1`, the “activity change, negative = cytotoxicity” value is inactive: -5.74%.
On to `COP(=S)(Cl)OC`, for which the “activity change, negative = cytotoxicity” value is inactive: 2.95%.
As for `CCOP(=S)(CC)Sc1ccccc1` (stereo unspecified), the “activity change, negative = cytotoxicity” value is inactive: -1.08%.
With `NC(=O)Nc1ccc([As](=O)(O)O)cc1`, the Potency result is “inactive”.
For `O=[As]c1ccccc1` (stereo unspecified), the Potency was active: 969 nM.
As for `ClP(Cl)c1ccccc1`, the “activity change, negative = cytotoxicity” value is inactive: 3.02%.
Regarding `Cc1cc([N+](=O)[O-])c(O)c([N+](=O)[O-])c1`, the “activity change, negative = cytotoxicity” value was inactive: -18.9%.
As to `O=[p+]1oc2ccccc2c2ccccc21` (stereo unspecified), the “activity change, negative = cytotoxicity” value was inactive: -0.539%.
Same read-out and setting: the same measure for `CC(C)CCCCCCCOP(OCCCCCCCC(C)C)Oc1ccccc1`: inactive: 10.5%; for `O=P(Cl)(Oc1ccccc1)Oc1ccccc1`: inactive: -2.21%; for `CCC(C)(OOC(C)(C)C)OOC(C)(C)C`: inactive: 0.57% [at 19 µM].
